Target: T1, IDO1 enzyme in Hela cells (Homo sapiens, UniProt P14902)
T1 construct: endogenous in cells; host or cells: HeLa cells stimulated with human recombinant IFN-γ
Assay: Inhibition of IDO1 enzyme in IFN-γ stimulated Hela cells (kynurenine read at 480 nm)
Type: cell-based
Settings: 48 h

Chains of the proteins cited; added tags and fusions are not shown.
UniProt P14902, whole entry: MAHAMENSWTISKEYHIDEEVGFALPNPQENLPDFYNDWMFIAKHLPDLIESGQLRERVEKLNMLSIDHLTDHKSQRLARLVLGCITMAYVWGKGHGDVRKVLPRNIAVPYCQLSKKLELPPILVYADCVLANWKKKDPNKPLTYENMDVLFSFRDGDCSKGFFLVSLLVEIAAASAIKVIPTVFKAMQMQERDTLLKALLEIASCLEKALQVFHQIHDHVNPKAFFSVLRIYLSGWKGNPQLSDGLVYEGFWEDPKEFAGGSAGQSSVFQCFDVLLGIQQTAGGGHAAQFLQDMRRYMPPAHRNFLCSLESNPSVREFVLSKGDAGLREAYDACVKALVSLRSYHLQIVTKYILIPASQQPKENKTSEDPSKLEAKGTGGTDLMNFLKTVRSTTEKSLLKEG

## CCCCN(CCCC)c1ccc(/C(C)=C\C(=O)O)cc1NC(=O)Nc1ccc(C)cc1 [Compound 9, (Z)-3-(4-(dibutylamino)-3-(3-(p-tolyl)ureido)phenyl)but-2-enoic acid]
read-out: Inhibition rate (%) 100 nmol
  inhibition at 0.1 µM: 100%
read-out: Inhibition rate (%) 10 μmol
  inhibition at 10 µM: 100%

Source: patent publication US11370762B2, “Vinylarene derivative and application” (SHENYANG RESEARCH INSTITUTE OF CHEMICAL INDUSTRY CO., LTD., priority 2017, dated 2022)
